Measured values as given in article PMC11694061 (Cancer Research, 2024).

Test system: KU812 cells
Assay: Proliferation, KU812
Assay type: cell-based
Conditions: Homo sapiens, KU812, 72 h, read-out: IC50 KU812
Description: Cells were inoculated onto 96-well plates and treated with compounds in serial dilutions for 3 or 5 days. […] The cell viability of primary patient samples was tested using the CellTiter-Glo Luminescent Assay kit (G7573, Promega) according to the manufacturer’s instructions. […] The optical density (OD) values were obtained using a SPARK microplate reader (Tecan). IC50 was calculated using GraphPad Prism 8.0.2 (nonlinear regression analysis with four parameters). Drug synergy was evaluated with combination index (CI) values using CalcuSyn Demo Version 2.0 software. CI > 1 indicates antagonism, CI < 1 indicates synergy, and CI = 1 indicates additivity.

Structure (SMILES): COc1cc2nc(C)nc(N[C@H](C)c3cc(N)cc(C(F)(F)F)c3)c2cc1O[C@H]1CCOC1 [BI-3406]
- IC50: 0.0232 ± 0.0143 µM
